# AlphaSeq binding of Ab-14 light chain variants to a spike HR2 peptide

All variants were tested on one target, the spike HR2 peptide PDVDLGDISGINAS (SARS-CoV-2).

Parent scFv Ab-14: VH joined to VL by a 15-residue (Gly4Ser)3 linker. Changes lie in the light chain CDRs alone.
VH: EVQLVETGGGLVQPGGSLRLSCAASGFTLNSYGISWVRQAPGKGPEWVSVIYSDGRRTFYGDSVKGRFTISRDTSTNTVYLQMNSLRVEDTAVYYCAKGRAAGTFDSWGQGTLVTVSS
VL: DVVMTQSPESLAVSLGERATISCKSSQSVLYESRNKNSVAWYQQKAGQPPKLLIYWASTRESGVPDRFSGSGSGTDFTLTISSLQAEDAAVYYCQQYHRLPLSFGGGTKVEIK

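The starting antibody came from a phage panning campaign against this peptide. This is the validation round: designs drawn from the data on random variants, tested in the same kind of assay. Their group label is 14L_GP_HC (GP: Gaussian process model; HC: hill climbing; a sequence that several methods proposed may carry one label only). The scFvs were displayed on barcoded MATa yeast, the peptide on MATalpha yeast. Pairs that bind mate more often; barcode pairs of the diploids are counted by sequencing. Read counts were normalised to the haploid input and turned into Kd by a linear fit to BCL2-family pairs of known affinity, for each replicate. There are six technical replicates.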

Each variant is given by its three light chain CDRs, as the data file delimits them; those of the parent are KSSQSVLYESRNKNSVA, WASTRES, QQYHRLPLS.
The read-out is the apparent dissociation constant on a log10 scale (nM): the lower, the stronger.
Where no diploid with the target was found in that replicate, the entry reads "n.d.": below detection, most likely a poor binder, though not proof of it.
Empty control strains, which show no peptide, gave a signal in 4% of pairings with all light chain designs; the median was 2.64 and 95% of these signals were weaker than 1.59. No background was subtracted. The control count says in how many pairings with the empty strains this scFv gave a signal, with their mean in brackets.

{"CDR-L1": "KSSQSQLYESRNKNSVA", "CDR-L2": "NASTRED", "CDR-L3": "QQYHRLPLS", "log10 Kd, replicates": "0.27 0.11 0.33 -0.15 -0.25 0.11", "signal with controls": "0/18"}
{"CDR-L1": "KFSQSWLYEDRVKNSVA", "CDR-L2": "GAQTRES", "CDR-L3": "QQYHRLPLS", "log10 Kd, replicates": "0.02 0.01 -0.21 -0.24 -0.15 -0.03", "signal with controls": "1/18 (2.45)"}
{"CDR-L1": "KLSQSTLYDSLNKNSVA", "CDR-L2": "WASTRES", "CDR-L3": "QQYKRLPLS", "log10 Kd, replicates": "2.30 2.59 n.d. 1.63 2.37 2.46", "signal with controls": "0/18"}
{"CDR-L1": "KLSQSVLYDSRNKNSVA", "CDR-L2": "NASTRES", "CDR-L3": "QQYHRLPLS", "log10 Kd, replicates": "-0.27 -0.57 -0.51 -0.86 -0.53 -0.37", "signal with controls": "0/18"}
{"CDR-L1": "KSSMSYLGEKRNKNSVA", "CDR-L2": "EASTRES", "CDR-L3": "QQYHRLPLS", "log10 Kd, replicates": "0.38 0.30 0.29 0.30 0.30 0.64", "signal with controls": "1/18 (3.74)"}
{"CDR-L1": "KSSQSQLYESRNFNSVA", "CDR-L2": "GASTRES", "CDR-L3": "QQYHRLPLS", "log10 Kd, replicates": "0.02 0.42 0.21 -0.46 -0.16 -0.26", "signal with controls": "0/18"}
{"CDR-L1": "KSSISVLYESHNKNSVA", "CDR-L2": "NASTRMS", "CDR-L3": "QQYHRLPLS", "log10 Kd, replicates": "0.97 0.74 0.64 0.52 0.74 0.80", "signal with controls": "1/18 (2.77)"}
{"CDR-L1": "SLQQSVLYESRNKNSVA", "CDR-L2": "HASLRED", "CDR-L3": "QQYHRLPLS", "log10 Kd, replicates": "0.63 0.42 0.48 0.55 0.85 0.70", "signal with controls": "2/18 (3.52)"}
{"CDR-L1": "KSLQSVLYESRNKNSVA", "CDR-L2": "HASTRED", "CDR-L3": "QQYHRLPLM", "log10 Kd, replicates": "1.31 -0.15 -0.20 0.30 1.51 0.25", "signal with controls": "0/18"}
{"CDR-L1": "KMLQSVLYESRDKNSVA", "CDR-L2": "HASTRED", "CDR-L3": "QQYHRLPLS", "log10 Kd, replicates": "0.81 0.67 0.00 0.14 0.32 0.15", "signal with controls": "1/18 (2.58)"}
{"CDR-L1": "KLPQSALYESRNKNSVA", "CDR-L2": "GASTRES", "CDR-L3": "QQYHRLPLS", "log10 Kd, replicates": "0.02 -0.10 -0.35 -0.31 -0.15 -0.18", "signal with controls": "0/18"}
{"CDR-L1": "KSGQGVDYESRNKNSVA", "CDR-L2": "GASLRES", "CDR-L3": "QQYHRLPLS", "log10 Kd, replicates": "-0.07 -0.10 -0.19 -0.25 -0.33 0.14", "signal with controls": "5/18 (2.66)"}
{"CDR-L1": "HQSGSVLYESRNKNSVA", "CDR-L2": "NGSTREV", "CDR-L3": "QQYHRLPLS", "log10 Kd, replicates": "0.45 0.16 0.17 0.04 0.20 0.27", "signal with controls": "3/18 (2.76)"}
{"CDR-L1": "KFSQKVLYEARTKNSVA", "CDR-L2": "NASTRES", "CDR-L3": "QQYHRLPLS", "log10 Kd, replicates": "0.48 -0.15 0.19 0.25 0.81 0.23", "signal with controls": "0/18"}
{"CDR-L1": "KSSQSWLYESRNKNSVA", "CDR-L2": "GASTREH", "CDR-L3": "QQYHRLPLS", "log10 Kd, replicates": "-0.26 -0.28 -0.16 -0.36 -0.22 -0.02", "signal with controls": "1/18 (2.83)"}
{"CDR-L1": "KLSQSVLNESRNKNSVA", "CDR-L2": "DASTRES", "CDR-L3": "QQYHRMPLS", "log10 Kd, replicates": "0.10 -0.10 -0.11 -0.18 -0.08 0.20", "signal with controls": "0/18"}
{"CDR-L1": "KLRQSTSYESRNQNSVA", "CDR-L2": "WASTRES", "CDR-L3": "QQYHRLPLS", "log10 Kd, replicates": "0.92 1.17 0.68 1.35 0.74 0.96", "signal with controls": "2/18 (2.88)"}
{"CDR-L1": "KLRQSVLYESRNKNSVA", "CDR-L2": "HASTRED", "CDR-L3": "QQYHRLPLS", "log10 Kd, replicates": "-0.13 -0.18 -0.42 -0.37 -0.11 -0.09", "signal with controls": "0/18"}
{"CDR-L1": "KSSPSELYESRNKNSVA", "CDR-L2": "NASTRES", "CDR-L3": "QQYHRLPLS", "log10 Kd, replicates": "0.78 0.82 1.13 1.09 0.68 0.74", "signal with controls": "1/18 (2.94)"}
{"CDR-L1": "KLRQSYLYESRNKNSVA", "CDR-L2": "QASTRES", "CDR-L3": "QQYHRLPLT", "log10 Kd, replicates": "0.00 -0.09 0.28 -0.17 -0.09 0.07", "signal with controls": "0/18"}
{"CDR-L1": "KVSQSVLYESRMKNSVA", "CDR-L2": "DASTRCS", "CDR-L3": "QQYHRLPLW", "log10 Kd, replicates": "-0.11 -0.23 -0.20 -0.58 -0.48 -0.17", "signal with controls": "3/18 (2.81)"}
{"CDR-L1": "KFSQSVLYESRTQNRVA", "CDR-L2": "NASTRES", "CDR-L3": "QQYHRLPLS", "log10 Kd, replicates": "1.04 1.42 1.24 1.18 0.74 1.13", "signal with controls": "1/18 (2.14)"}
{"CDR-L1": "KLRQSTLYESRNPNSVA", "CDR-L2": "GASTRES", "CDR-L3": "QQYHRLPLS", "log10 Kd, replicates": "-0.16 -0.41 -0.51 -0.43 -0.51 -0.21", "signal with controls": "0/18"}
{"CDR-L1": "KCSSSVLFQSRNKNSVA", "CDR-L2": "DASTRES", "CDR-L3": "QQYHRLPLS", "log10 Kd, replicates": "-0.22 -0.20 -0.18 -0.42 -0.19 -0.04", "signal with controls": "2/18 (2.73)"}
{"CDR-L1": "KSSISYLYESPNKNSVA", "CDR-L2": "EASTRCS", "CDR-L3": "QQYHRLPLS", "log10 Kd, replicates": "0.26 0.02 -0.01 -0.14 -0.02 0.25", "signal with controls": "0/18"}
{"CDR-L1": "KVMQSVVYEGRNKNSVA", "CDR-L2": "HASTRED", "CDR-L3": "QQYHRLPLS", "log10 Kd, replicates": "-0.07 -0.02 -0.35 -0.11 -0.17 0.17", "signal with controls": "0/18"}
{"CDR-L1": "KFSQWVLYESRTKNSVA", "CDR-L2": "GASTRES", "CDR-L3": "QQYHRLPLS", "log10 Kd, replicates": "n.d. n.d. n.d. n.d. n.d. n.d.", "signal with controls": "0/18"}
{"CDR-L1": "KVSISYLIESRNKNSVA", "CDR-L2": "EASTRES", "CDR-L3": "QQYHRLPLS", "log10 Kd, replicates": "0.54 0.54 -0.23 0.21 0.35 0.56", "signal with controls": "0/18"}
{"CDR-L1": "KSSISYLYESRNKNSVA", "CDR-L2": "AASTREQ", "CDR-L3": "QQYHRLPLS", "log10 Kd, replicates": "-0.07 0.06 -0.02 0.16 -0.10 0.05", "signal with controls": "0/18"}
{"CDR-L1": "KLLQSVLYQSRNKNSVA", "CDR-L2": "HASTRED", "CDR-L3": "QQYHQLPLS", "log10 Kd, replicates": "0.16 -0.02 0.18 -0.16 -0.06 0.12", "signal with controls": "1/18 (3.07)"}
{"CDR-L1": "ASSQSWLYESRNKNSVA", "CDR-L2": "GASTRED", "CDR-L3": "QQYHRLPLS", "log10 Kd, replicates": "-0.03 0.56 1.15 0.73 1.57 -0.20", "signal with controls": "0/18"}

Repeated from above, the 4 best binders with a signal in all replicates:

{"CDR-L1": "KLSQSVLYDSRNKNSVA", "CDR-L2": "NASTRES", "CDR-L3": "QQYHRLPLS", "log10 Kd, replicates": "-0.27 -0.57 -0.51 -0.86 -0.53 -0.37", "signal with controls": "0/18"}
{"CDR-L1": "KLRQSTLYESRNPNSVA", "CDR-L2": "GASTRES", "CDR-L3": "QQYHRLPLS", "log10 Kd, replicates": "-0.16 -0.41 -0.51 -0.43 -0.51 -0.21", "signal with controls": "0/18"}
{"CDR-L1": "KVSQSVLYESRMKNSVA", "CDR-L2": "DASTRCS", "CDR-L3": "QQYHRLPLW", "log10 Kd, replicates": "-0.11 -0.23 -0.20 -0.58 -0.48 -0.17", "signal with controls": "3/18 (2.81)"}
{"CDR-L1": "KSSQSWLYESRNKNSVA", "CDR-L2": "GASTREH", "CDR-L3": "QQYHRLPLS", "log10 Kd, replicates": "-0.26 -0.28 -0.16 -0.36 -0.22 -0.02", "signal with controls": "1/18 (2.83)"}

The parent sequence was in this pool as ten entries: three were never detected, three once, and four in most replicates, with averages from 0.34 to 2.37.
In the paper, a design with two or fewer of six values counts as a poor binder.
A sequence measured in both rounds can read differently, since the two assays cover different ranges.

Source: Li et al. 2023 (doi:10.1038/s41467-023-39022-2), MIT Lincoln Laboratory and A-Alpha Bio; data file from the FLAb repository.